According to PubChem BioAssay AID651704 (Broad Institute, 2012):
The entries are a selection whose mix differs from that of the whole data set. Some structures show a salt or complex split into parts, the way the source records it. Active and inactive are the calls of the source.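 How the source made its calls: active means every replicate reaching a set inhibition limit, whatever the replicate mean (cut at about 25% in these data); inconclusive means mean inhibition reaches that limit but some replicates miss it; inactive means the rest.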

By UniProt entry, the sequences of proteins in these tests, tags left out.
UniProt P42568, whole entry: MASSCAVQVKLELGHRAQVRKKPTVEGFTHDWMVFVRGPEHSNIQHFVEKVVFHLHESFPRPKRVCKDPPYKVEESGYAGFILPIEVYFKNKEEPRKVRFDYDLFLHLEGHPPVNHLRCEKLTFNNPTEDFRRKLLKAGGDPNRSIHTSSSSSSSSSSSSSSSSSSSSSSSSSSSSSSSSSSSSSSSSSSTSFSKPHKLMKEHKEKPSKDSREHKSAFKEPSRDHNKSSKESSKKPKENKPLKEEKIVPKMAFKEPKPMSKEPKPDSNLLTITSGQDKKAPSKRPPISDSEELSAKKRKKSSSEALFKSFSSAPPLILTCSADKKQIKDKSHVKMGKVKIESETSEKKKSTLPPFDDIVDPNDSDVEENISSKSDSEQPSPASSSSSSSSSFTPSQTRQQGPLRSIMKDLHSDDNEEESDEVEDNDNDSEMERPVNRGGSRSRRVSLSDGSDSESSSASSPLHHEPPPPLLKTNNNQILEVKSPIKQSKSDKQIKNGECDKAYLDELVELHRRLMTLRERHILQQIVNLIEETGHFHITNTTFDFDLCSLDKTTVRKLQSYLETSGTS

biological target: Protein AF-9 (Homo sapiens) (UniProt P42568); test: MLL-AF4/AF9 protein interaction blockers – biochemical, AlphaScreen, biotin-AF4 peptide, FLAG-AF9, single point, primary screen (AID 651704); details: biotin-AF4 peptide binding to FLAG-AF9, at 10 µM, stronger effect = higher value;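 further: 0% = plate neutral control median and 100% = total signal loss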

SMILES | inhibition
COc1ccc(N)c([N+](=O)[O-])c1[N+](=O)[O-] | inactive: 3%
O=P(Nc1ccccn1)(c1ccc(Br)cc1)c1ccc(Br)cc1 | inactive: 1.54%
CN(C)C1(CNC(=O)c2ccc(Cl)c(S(N)(=O)=O)c2)CCCCC1 | inactive: -0.962%
O=P(Nc1nc2ccccc2s1)(c1ccccc1)c1ccccc1 | inactive: -1.57%
COc1ccc(NP(C)(=O)Oc2ccccc2OC)cc1 (configuration not stated) | inactive: 1.23%
O=[N+]([O-])c1ccc(OP2(=O)COCCO2)cc1 (configuration not stated) | inactive: -0.972%
CC(=O)NC(SC(=S)N(C)C)C(Cl)(Cl)Cl (configuration not stated) | inactive: -2.71%
O=[N+]([O-])c1ncn(CCn2cnc([N+](=O)[O-])n2)n1 | inactive: -4.83%
Cc1cc(-c2cccc3ccccc23)c(C)cn1.O=[N+]([O-])c1cc([N+](=O)[O-])c(O)c([N+](=O)[O-])c1 | inactive: -7.51%
O=[N+]([O-])c1cc([N+](=O)[O-])c(NCC2CCS(=O)(=O)C2)c([N+](=O)[O-])c1 (configuration not stated) | inactive: -2.24%
O=[As](O)(c1ccccc1)c1ccc(O)cc1 | inactive: -17.6%
C(Cc1nn[nH]n1)Cc1nn[nH]n1 | inactive: 2.36%
Nc1ccc([As](=O)(O)c2ccc([N+](=O)[O-])cc2)cc1 | inactive: -1.93%
Cc1c(C(c2ccc3c(c2)OCO3)c2c(C)n(C)n(-c3ccccc3)c2=O)c(=O)n(-c2ccccc2)n1C.O=[N+]([O-])c1cc([N+](=O)[O-])c(O)c([N+](=O)[O-])c1 | inactive: 0.394%
C/C(N)=N\P(=O)(OCc1ccccc1)OCc1ccccc1 | inactive: -1.98%
CP(=O)(Nc1ccc(SC(F)(F)F)cc1)Oc1ccc(F)cc1 (configuration not stated) | inactive: -1.47%
O=[N+]([O-])c1cc([N+](=O)[O-])c(C(F)(F)F)c([N+](=O)[O-])c1O | inactive: -4.26%
CCOc1ccc(C2=NCC(CBr)S2)cc1 (configuration not stated) | inactive: 1.46%
O=[N+]([O-])c1cc([N+](=O)[O-])c(Nc2ccc(Cl)cc2)c([N+](=O)[O-])c1 | inactive: 13.5%

SMILES | inhibition
CP(=O)(Nc1ccccc1F)Oc1ccccc1 (configuration not stated) | inactive: 1.03%
CCc1cc(O)c([N+](=O)[O-])c(C)c1[N+](=O)[O-] | inactive: -0.308%
CC(C)c1ccc(OP(C)(=O)Nc2ccc(SC(F)(F)F)cc2)cc1 (configuration not stated) | inactive: -3.95%
CC(C)(C)C(=O)NC(Sc1ccccc1)C(Cl)(Cl)Cl (configuration not stated) | inactive: -1.06%
COC(=O)C1(C)COP(=O)(NCc2ccccc2)OC1 (configuration not stated) | inactive: -1.31%
O=C(OC1CN2CCC1CC2)c1ccc([N+](=O)[O-])cc1 (configuration not stated) | inactive: -0.14%
CC(=O)c1ccc(N2CC2c2ccncc2)cc1 (configuration not stated) | inactive: -1.06%
N#C/C(=C\c1ccc(N(CCBr)CCBr)cc1)C(N)=O | inactive: 2.99%
C[C@H]1OP(=O)(Oc2ccccc2)C[C@@H]2O[C@@H]21 (some centres not stated) | inactive: 0.705%
C[C@@H]1C=CCP(=O)(Oc2ccccc2)O1 (some centres not stated) | inactive: 0.142%
Cc1ccccc1CN(C)C(=O)COC(=O)C(O)(c1ccccc1)c1ccccc1 | inactive: -2.47%
O=C(OCCN1CCN(CCOCc2ccccc2)CC1)C(O)(c1ccccc1)c1ccccc1 | inactive: 7.95%
CC(=O)Nc1ccc(Oc2c([N+](=O)[O-])cc([N+](=O)[O-])cc2[N+](=O)[O-])cc1 | inactive: 1.3%
CC(=O)Nc1ccc([As](=O)(O)O)c(O)c1 | inactive: -4.4%
COc1ccc2c(c1O)-c1c(O)c(OC)cc3c1[C@H](C2)[N+](C)(C)CC3.O=[N+]([O-])c1cc([N+](=O)[O-])c([O-])c([N+](=O)[O-])c1[O-] | inactive: 0.451%
CCNC(=S)/N=C(\N)N[N+](=O)[O-] | inactive: -0.664%
O=C(NC1CCS(=O)(=O)C1)NP(=S)(Oc1ccccc1)Oc1ccccc1 (configuration not stated) | inactive: 0.839%
Cc1ccc(NP(=O)(Oc2cccc(C)c2)Oc2cccc(C)c2)nc1 | inactive: 0.367%
CCN(CC)CCCNc1ccccc1[N+](=O)[O-].O=[N+]([O-])c1cc([N+](=O)[O-])c(O)c([N+](=O)[O-])c1 | inactive: -9.4%

SMILES | inhibition
c1ccc(-c2nn[nH]n2)c(-c2nn[nH]n2)c1 | inactive: -0.599%
O=P1(N(CCCl)CCCl)OCCC2CCCCN21 (configuration not stated) | inactive: 1.11%
COc1ccc(OP(C)(=O)Nc2ccc(SC(F)(F)F)cc2)cc1 (configuration not stated) | inactive: -1.54%
Cc1ccc(OP(=O)(Nc2ccccn2)Oc2ccc(C)cc2)cc1 | inactive: -0.761%
Cc1c([N+](=O)[O-])cc([N+](=O)[O-])c(Br)c1[N+](=O)[O-] | inactive: -0.692%
O=C(OC1CN2CCC1CC2)c1ccccc1 (configuration not stated) | inactive: -1.51%
O=[N+]([O-])c1cc([N+](=O)[O-])c(OC2CCCCC2O)c([N+](=O)[O-])c1 (configuration not stated) | inactive: -1.13%
O=c1c2cc([N+](=O)[O-])ccc2[nH]c2c([N+](=O)[O-])cc([N+](=O)[O-])cc12 | inactive: 0.838%
CCCCCOc1ccc(NP(C)(=O)Oc2ccc(Cl)cc2Cl)cc1 (configuration not stated) | inactive: -0.468%
CN(C)C(=O)Oc1noc2ccccc12 | inactive: -3.41%
CC(NC(=O)COC(=O)C(O)(c1ccccc1)c1ccccc1)c1ccccc1 (configuration not stated) | inactive: -0.861%
Cc1ccccc1OP(=O)(Nc1ccccn1)Oc1ccccc1C | inactive: -3.28%
CCCC1OP(N)(=O)OCC1CC (configuration not stated) | inactive: -2.27%
CC(=O)Nc1ccc([As](=O)(O)O)cc1 | inactive: -0.254%
O=C(O)c1ccccc1[As](=O)(O)O | inactive: -1.44%
O=P(Nc1nc2ccc(Cl)cc2s1)(c1ccccc1)c1ccccc1 | inactive: 4.74%
Cc1cc(C)cc(OP(C)(=O)Nc2cccc(C(F)(F)F)c2)c1 (configuration not stated) | inactive: -2.79%
CN(C)P(=O)(N(C)C)n1c(Nc2ccccc2)nnc1-c1ccccc1 | inactive: 2.28%
O=C1C(O)=C([N+](=O)[O-])C(=O)C(O)=C1[N+](=O)[O-] | inactive: -0.468%
